Measured values taken from BindingDB's records for doi:10.1021/acsmedchemlett.1c00082 (Bristol Myers Squibb, 2021).

Experiment: Antagonist activity at CCR2 in human THP1 cells assessed as reduction in MCP1-induced chemotaxis measured after 30 mins by calcein-AM dye based fluorescence assay

Question: Which IC50 does the source give for CC(=O)N[C@@H]1C[C@H](NC(C)C)CC[C@@H]1N1CC[C@H](Nc2ncnc3ccc(C(F)(F)F)cc23)C1=O here?
Answer: 20 nM
